Experimental data from article PMC6982123 (ACS chemical neuroscience, 2019).

Amino acid sequences for entries named in this document (tags omitted). A change or cut given only in a name is not applied to a line headed by its entry.
UniProt O15379: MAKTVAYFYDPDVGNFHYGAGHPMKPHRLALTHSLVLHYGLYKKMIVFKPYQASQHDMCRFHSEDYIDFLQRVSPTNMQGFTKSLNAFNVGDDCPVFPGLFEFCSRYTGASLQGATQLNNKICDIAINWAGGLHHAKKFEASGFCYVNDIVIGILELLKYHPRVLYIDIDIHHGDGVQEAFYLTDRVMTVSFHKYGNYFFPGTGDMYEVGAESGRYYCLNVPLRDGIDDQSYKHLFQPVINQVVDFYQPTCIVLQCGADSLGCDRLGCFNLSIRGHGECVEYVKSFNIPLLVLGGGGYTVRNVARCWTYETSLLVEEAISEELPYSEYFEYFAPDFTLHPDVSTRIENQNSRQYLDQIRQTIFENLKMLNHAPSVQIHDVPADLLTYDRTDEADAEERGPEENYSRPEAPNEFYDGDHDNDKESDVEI

Biological target: HDAC3 in combination with the DAD domain of NCoR2 (Homo sapiens, UniProt O15379)
Assay: HDAC inhibition continuous
Type: biochemical

In the case of trichostatin A [Compound S1], the “Mechanism of binding HDAC3” value is reported as “effectively irreversible behavior”.
